Experimental findings from article PMC10509325 are described below.

Where two headings read alike, the source gives them in different places.

As a reminder, the Kd is a measure of binding affinity in units of concentration. The low end stands for a tighter complex, the high end for a looser complex. By stoichiometry N is commonly meant a count of units in the complex or per binding partner.

Common to all, as to test: AUC
Test [1] has as its target Gallus gallus NET-1 with truncated C-terminal domain (aa 26-458) (Gallus gallus) (UniProt Q90922).
In test [2] the target is UNC-5B soluble extracellular domains (aa 25-300) labelled with Alexa Fluor 488 (UniProt Q8K1S3).
The target of test [3] is Gallus gallus NET-1 with truncated C-terminal domain (aa 26-458) (Gallus gallus) (UniProt Q90922). This is another data set of the same source.
For test [4], the target named is UNC-5B soluble extracellular domains (aa 25-300) labelled with Alexa Fluor 488 (UniProt Q8K1S3). This is another data set of the same source.

As for “Gallus gallus NET-1 with truncated C-terminal domain (aa 26-458) (from UniProt Q90922 26-458) (ligand)”, the figures for the Kd in test [1] and in test [3] were 17.6 µM and 137 µM, respectively. Also, the stoichiometry N in test [2] and in test [4] was 1 in each case.
